This passage reports Ki results from ChEMBL document CHEMBL1145183, “Novel heterocyclic trans olefin analogues of N-{4-[4-(2,3-dichlorophenyl)piperazin-1-yl]butyl}arylcarboxamides as selective probes with high affinity for the dopamine D3 receptor” (J Med Chem, 2005).

The chains behind the UniProt entries cited, without tags or fusion partners.
UniProt P14416, whole entry: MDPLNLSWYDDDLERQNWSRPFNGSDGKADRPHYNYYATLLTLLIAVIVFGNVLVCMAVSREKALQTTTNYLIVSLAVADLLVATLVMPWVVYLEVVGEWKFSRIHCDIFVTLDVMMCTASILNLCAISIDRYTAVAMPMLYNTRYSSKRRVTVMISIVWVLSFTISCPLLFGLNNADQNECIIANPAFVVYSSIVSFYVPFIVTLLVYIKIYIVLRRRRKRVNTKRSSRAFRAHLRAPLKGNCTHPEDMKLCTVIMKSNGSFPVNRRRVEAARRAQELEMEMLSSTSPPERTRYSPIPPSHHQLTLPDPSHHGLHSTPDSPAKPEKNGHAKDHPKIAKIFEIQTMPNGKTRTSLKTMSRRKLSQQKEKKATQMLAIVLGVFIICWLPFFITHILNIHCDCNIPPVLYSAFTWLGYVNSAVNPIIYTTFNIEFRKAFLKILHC

For this test, the target named is D(2) dopamine receptor (Homo sapiens, UniProt P14416).

In the case of `O=C(NCCCCN1CCN(c2cccc(Cl)c2Cl)CC1)c1ccc(I)cc1`, the inhibition constant Ki is 0.0393 µM.

As a reminder, the Ki is the equilibrium dissociation constant of an inhibitor or competing ligand from its target. Low readings indicate higher affinity, high ones lower affinity.
